Test system: houseflies (Musca domestica)
Assay: Biological Test 16: topical application of compound (1) with piperonyl butoxide, mortality
Assay type: in vivo
Conditions: compound (1) 0.5 + piperonyl butoxide 1.0 μg/female; after 24 hours
Experimental: The combination rate of piperonyl butoxide to the present compound was 0, 2, 4, 8 and 16 times. The mixture was dissolved in acetone. The acetone solution (0.5 μL) was applied to 10 female houseflies (Musca domestica) at the back thoracic region. After 24 hours, the number of dead insects was observed (2 repetition) and mortality was calculated.

For Cc1ccc(COC(=O)[C@@H]2[C@H](/C=C(\Cl)C(F)(F)F)C2(C)C)o1 (relative stereo) [Compound (1), 5-methyl-2-furfuryl (1RS,cis)-3-(Z-2-chloro-3,3,3-trifluoroprop-1-enyl)-2,2-dimethylcyclopropanecarboxylate], the “Mortality (%)” value was 95%.

From patent US6048892A, “Ester compound pesticide containing thereof” (Sumitomo Chemical Company, Limited, priority 1999, dated 2000)
